Target: T1, GnRH-R (Rattus norvegicus, UniProt P30969)
T1 construct: from tissue; host or cells: pituitary gland of living male Sprague-Dawley rats
T1 sequence (P30969 1-327): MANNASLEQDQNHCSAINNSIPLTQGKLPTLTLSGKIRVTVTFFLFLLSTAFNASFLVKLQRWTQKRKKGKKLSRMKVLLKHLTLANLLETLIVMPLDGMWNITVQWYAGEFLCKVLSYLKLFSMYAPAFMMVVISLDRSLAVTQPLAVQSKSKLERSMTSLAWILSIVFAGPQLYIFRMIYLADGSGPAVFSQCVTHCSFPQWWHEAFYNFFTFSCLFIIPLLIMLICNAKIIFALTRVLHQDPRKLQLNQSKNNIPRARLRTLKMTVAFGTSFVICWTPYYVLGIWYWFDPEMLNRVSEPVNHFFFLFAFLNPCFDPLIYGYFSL
Assay: Efficacy of Conj4 in rats, serum testosterone by ELISA
Format: in vivo
Protocol: For control, a third group (N=3) of rats was administered only vehicle. Testosterone levels in serum were determined using ELISA and concentrations were expressed as means (±SEM).
GnRH agonists interact with GnRH-R in the pituitary gland. […] Therefore, the in vivo efficacy of Conj4 on circulating levels of testosterone was evaluated in male rats. […] In vehicle treated rats, a normal circadian rhythm of testosterone was observed (normal range of serum testosterone in rat is 0.7-5 ng/ml).
Serum samples were collected, for each rat and stored in a −20° C. until assayed for testosterone. […] Testosterone levels were expressed as means (±SEM). Significant differences between groups of animals were determined by one way analysis of variance with post hoc Dunnett's multiple comparisons test at each particular time point (GraphPad Prism).

Which results are given for Cc1n[nH]c(C)c1CCCOc1cc(OCCCc2cn(CCOCCOCCOCCC(=O)NCCCCC(NC(=O)C(Cc3ccc(O)cc3)NC(=O)C(CO)NC(=O)C(Cc3c[nH]c4ccccc34)NC(=O)C(Cc3c[nH]cn3)NC(=O)C3CCC(=O)N3)C(=O)NC(CC(C)C)C(=O)NC(CCCNC(=N)N)C(=O)N3CCCC3C(=O)NCC(N)=O)nn2)cc(C(=O)O)c1 (stereo not drawn) [Conj4]?
time for testosterone to return to vehicle treated levels / pretreatment range (male rats, single i.v. 120 picomoles/kg): ≤ 24 h; serum testosterone level at 1 h (male rats, single i.v. 120 picomoles/kg, 1 h after injection): 35.6 ± 3.2 ng/mL; serum testosterone level at 6 h (male rats, single i.v. 120 picomoles/kg, 6 h): 25.6 ± 2.8 ng/mL; serum testosterone level at 8 h (male rats, single i.v. 120 picomoles/kg, 8 h): 18.9 ± 1.0 ng/mL; serum testosterone level at 12 h (male rats, single i.v. 120 picomoles/kg, 12 h post dosing): 12.7 ± 2.3 ng/mL; increase of testosterone above basal levels at 12 h (vs vehicle treated rats, 12 h post dosing): ~16 fold
